Data from patent publication US4221782A (priority 1978, dated 1980).

What was measured:
[1] = tested on: stickleback; assay: Example 5: mortality of stickleback under the same conditions; conditions: same test conditions as sockeye
[2] = tested on: threespine stickleback and chinook salmon; assay: Example 4: selectivity and safety indices, stickleback versus chinook salmon, artesian well water; conditions: for Safety index / Selectivity index: approximate
[3] = tested on: threespine stickleback; assay: Example 6: deactivators for azide, survival of stickleback in 12-hour bioassays; format: in vivo, Gasterosteus aculeatus; conditions: potassium azide 20 mg/l, no deactivator; 15 degrees Celsius
[4] = tested on: threespine stickleback; conditions: for LC50 / LC100: potassium azide
[5] = tested on: sockeye
[6] = tested on: sockeye; assay: Example 2: mortality of sockeye, 96-hour bioassay, artesian well water; conditions: for concentration at which no mortality occurred in sockeye: 96-hour assay, artesian well water
[7] = tested on: threespine stickleback and steelhead; assay: Example 1: selectivity and safety indices, stickleback versus steelhead; conditions: for Safety index LC0/LC100 / Selectivity index LC50/LC50: steelhead/stickleback, 10° C.
[8] = tested on: sockeye; assay: Mortality of sockeye with potassium azide and deactivator, ten-day observation; conditions: for mortality of sockeye: 5 mg/l potassium azide + deactivator; for mortality of salmon: 7 mg/l potassium azide and deactivator
[9] = tested on: steelhead; assay: Example 1: mortality of steelhead exposed to potassium azide, 72-hour bioassay, artesian well water, 10° C.
[10] = tested on: threespine stickleback; assay: Example 1: mortality of threespine stickleback exposed to potassium azide, 72-hour bioassay, artesian well water, 10° C.; conditions: for percentage mortality of stickleback: 10° C., mg/l by line: b32 2.0, b33 3.0, b35 4.5, b36 7.0, b37 10.0
[11] = 72-hour assay, 10 degrees Celsius, artesian well water

Work on `[N-]=[N+]=[N-]` [sodium azide] yielded a mortality of stickleback [1] of 100%, a Safety index ([2]; 5 C., 12 h) of 2 and a Selectivity index ([2]; 5 C., 12 h) of 14. The Safety index ([2]; 5 C., 24 h) was 2, the Selectivity index ([2]; 5 C., 24 h) was 13 and the Safety index ([2]; 5 C., 48 h) was 3. It also gave a Selectivity index ([2]; 5 C., 48 h) of 19, a Safety index ([2]; 5 C., 96 h) of 6 and a Selectivity index ([2]; 5 C., 96 h) of 23. The Safety index ([2]; 10 C., 12 h) was 3, the Selectivity index ([2]; 10 C., 12 h) was 9 and the Safety index ([2]; 10 C., 24 h) was 4. It also gave a Selectivity index ([2]; 10 C., 24 h) of 12, a Safety index ([2]; 10 C., 48 h) of 6 and a Selectivity index ([2]; 10 C., 48 h) of 27. For the same molecule, the Safety index ([2]; 10 C., 96 h) was 5, the Selectivity index ([2]; 10 C., 96 h) was 27 and the Safety index ([2]; 15 C., 12 h) was 5. It also gave a Selectivity index ([2]; 15 C., 12 h) of 10, a Safety index ([2]; 15 C., 24 h) of 5 and a Selectivity index ([2]; 15 C., 24 h) of 15. It also gave a Safety index ([2]; 15 C., 48 h) of 4, a Selectivity index ([2]; 15 C., 48 h) of 25 and a Safety index ([2]; 15 C., 96 h) of 5. The Selectivity index ([2]; 15 C., 96 h) was 14 and the “selectivity and safety indices for chinook versus stickleback compared with sockeye and steelhead” value ([2]; in vivo) was “correspondingly greater”.

In the case of potassium azide, the Survival time [3] is reported as 2.3 h, the “percentage mortality of stickleback” value ([4]; 15 C, 96 h, mg/l by line: b111 1.0, b112 2.0, b113 2.5, b115 3.0, b117 5.0, b118 7.0, 5760 min) is reported as 85% and 100% and the “concentration at which 100% mortality of stickleback was achieved” value ([4]; 96-hour assay, 5, 10, and 15 degrees Celsius, artesian well water) is reported as 2 mg/L. It also gave an LC100 of stickleback ([4]; artesian well water, similar experimental conditions (96-hour, 15 degrees Celsius)) of 2.00 mg/L, an LC50 ([4]; 5 C., 12 h) of 2.0 µg/mL and an LC100 ([4]; 5 C., 12 h) of 7.0 mg/L. The LC50 ([4]; 5 C., 24 h) was 1.5 µg/mL, the LC100 ([4]; 5 C., 24 h) was 5.0 mg/L and the LC50 ([4]; 5 C., 48 h) was 1.0 µg/mL. It also gave an LC100 ([4]; 5 C., 48 h) of 4.0 mg/L, an LC50 ([4]; 5 C., 96 h) of 0.8 µg/mL and an LC100 ([4]; 5 C., 96 h) of 2.0 mg/L. The LC50 ([4]; 10 C., 12 h) was 3.5 µg/mL, the LC100 ([4]; 10 C., 12 h) was 6.0 mg/L and the LC50 ([4]; 10 C., 24 h) was 2.5 µg/mL. For the same molecule, the LC100 ([4]; 10 C., 24 h) was 5.0 mg/L, the LC50 ([4]; 10 C., 48 h) was 1.0 µg/mL and the LC100 ([4]; 10 C., 48 h) was 3.0 mg/L. The LC50 ([4]; 10 C., 96 h) was 0.8 µg/mL, the LC100 ([4]; 10 C., 96 h) was 2.0 mg/L and the LC50 ([4]; 15 C., 12 h) was 3.0 µg/mL. For the same molecule, the LC100 ([4]; 15 C., 12 h) was 7.0 mg/L, the LC50 ([4]; 15 C., 24 h) was 2.0 µg/mL and the LC100 ([4]; 15 C., 24 h) was 5.0 mg/L. It also gave an LC50 ([4]; 15 C., 48 h) of 1.0 µg/mL, an LC100 ([4]; 15 C., 48 h) of 5.0 mg/L and an LC50 ([4]; 15 C., 96 h) of 0.9 µg/mL. The LC100 ([4]; 15 C., 96 h) was 2.0 mg/L, the “Death time of 10 fish, Mean” value ([5]; 5 C., 20 mg/l potassium azide) was 5.7 h and the “Death time of 10 fish, Range” value ([5]; 5 C., 20 mg/l potassium azide) was 3 to 23 h. For the same molecule, the “Death time of 10 fish, Mean” value ([5]; 15 C., 16 mg/l potassium azide) was 19.5 h, the “Death time of 10 fish, Range” value ([5]; 15 C., 16 mg/l potassium azide) was 9 to 35 h and the “mean times of death at about equal equivalents” value ([5]; potassium or sodium azide) was “about equal mean times of death”. The “concentration at which no mortality occurred in sockeye” value ([6]; 10 degrees Celsius) was 6000 ng/mL, the “concentration at which no mortality occurred in sockeye” value ([6]; 15 degrees Celsius) was 4000 ng/mL and the “concentration at which no mortalities of sockeye would occur” value ([6]; extrapolation of the 5 degrees Celsius data) was 4000 ng/mL. It also gave a Safety index LC0/LC100 ([7]; 12 h) of 7, a Selectivity index LC50/LC50 ([7]; 12 h) of 10 and a Safety index LC0/LC100 ([7]; 24 h) of 5. The Selectivity index LC50/LC50 ([7]; 24 h) was 10, the Safety index LC0/LC100 ([7]; 36 h) was 5 and the Selectivity index LC50/LC50 ([7]; 36 h) was 7. The Safety index LC0/LC100 ([7]; 48 h) was 5, the Selectivity index LC50/LC50 ([7]; 48 h) was 7 and the Safety index LC0/LC100 ([7]; 72 h) was 2. The Selectivity index LC50/LC50 ([7]; 72 h) was 5, the selective lethality ([7]; stickleback versus steelhead) was “selectively lethal to stickleback at concentrations nonlethal to steelhead” and the mortality of sockeye ([8]; 6 days) was “no sockeye in the series died”. For the same molecule, the mortality of sockeye ([8]; 10 days) was 40%, the mortality of salmon ([8]; 4 days) was “no salmon died” and the mortality of salmon ([8]; 10 days) was 84%. The “lethal long term effects” value ([8]; some concentration less than 5 mg/l with subsequent deactivator) was “no lethal long term effects”, the “concentration at which no mortality occurred in steelhead” value [9, 11] was “below 4.5 mg/l” and the “percentage mortality of steelhead” value ([9]; 12 h, 10° C., mg/l by line: b39 4.5, b41 10.0, b42 14.0, b43 20.0) was 0%. The “concentration at which 100% mortality of stickleback was achieved” value [10, 11] was 2 mg/L, the “percentage mortality of stickleback” value ([10]; 12 h, 720 min) was 90% and 100% and the “percentage mortality of stickleback” value ([10]; 24 h) was 100%. The “percentage mortality of stickleback” value ([10]; 36 h) was 100%, the “percentage mortality of stickleback” value ([10]; 48 h) was 100% and the “percentage mortality of stickleback” value ([10]; 72 h) was 100%.

Several values for one entry are separate records, joined by “and”; a condition that tells them apart may be missing. Equal entries are not always repeated. Where two headings read alike, the source gives them in different places.
